In ChEMBL document CHEMBL4680234, “Antibacterial AZT derivative regulates metastasis of breast cancer cells” (Eur J Med Chem, 2020):

Columns and labels:
Type in all cases: functional
Staphylococcus aureus [1] = assay: Antimicrobial activity against methicillin-resistant Staphylococcus aureus CCARM 3090 assessed as reduction in microbial growth incubated for 18 to 24 hrs by broth microdilution method; details: time 18-24 hrs
Bacillus subtilis = assay: Antibacterial activity against Bacillus subtilis KCTC 3068 assessed as reduction in bacterial growth incubated for 18 to 22 hrs by spectrophotometry based broth microdilution method; details: time 18-22 hrs, read-out: MIC100
Pseudomonas aeruginosa = assay: Antibacterial activity against Pseudomonas aeruginosa KCTC 1637 assessed as reduction in bacterial growth incubated for 18 to 22 hrs by spectrophotometry based broth microdilution method; details: time 18-22 hrs, read-out: MIC100
Staphylococcus aureus [2] = assay: Antimicrobial activity against methicillin-resistant Staphylococcus aureus CCARM 3089 assessed as reduction in microbial growth incubated for 18 to 24 hrs by broth microdilution method; details: time 18-24 hrs
Escherichia coli = assay: Antibacterial activity against Escherichia coli KCTC 1682 assessed as reduction in bacterial growth incubated for 18 to 22 hrs by spectrophotometry based broth microdilution method; details: time 18-22 hrs, read-out: MIC100
Staphylococcus aureus [3] = assay: Antimicrobial activity against methicillin-resistant Staphylococcus aureus CCARM 3095 assessed as reduction in microbial growth incubated for 18 to 24 hrs by broth microdilution method; details: time 18-24 hrs
Staphylococcus aureus [4] = assay: Antibacterial activity against Staphylococcus aureus KCTC 1621 assessed as reduction in bacterial growth incubated for 18 to 22 hrs by spectrophotometry based broth microdilution method; details: time 18-22 hrs, read-out: MIC100

Measured: MIC

CC[C@H](C)[C@H](NC(=O)CN)C(=O)NCC(=O)N[C@@H](C)C(=O)N[C@H](C(=O)N[C@@H](CC(C)C)C(=O)N[C@@H](CCCCN)C(=O)N[C@H](C(=O)N[C@@H](CC(C)C)C(=O)N[C@H](C(=O)N[C@H](C(=O)NCC(=O)N[C@@H](CC(C)C)C(=O)N1CCC[C@H]1C(=O)N[C@@H](C)C(=O)N[C@@H](CC(C)C)C(=O)N[C@H](C(=O)N[C@@H](CO)C(=O)N[C@@H](Cc1c[nH]c2ccccc12)C(=O)N[C@H](C(=O)N[C@@H](CCCCN)C(=O)N[C@@H](CCCNC(=N)N)C(=O)N[C@@H](CCCCN)C(=O)N[C@@H](CCCNC(=N)N)C(=O)N[C@@H](CCC(N)=O)C(=O)N[C@@H](CCC(N)=O)C(N)=O)[C@@H](C)CC)[C@@H](C)CC)[C@@H](C)O)[C@@H](C)O)C(C)C)C(C)C [MELITTIN]
16 µg/mL: Staphylococcus aureus [1] | Pseudomonas aeruginosa | Staphylococcus aureus [2] | Escherichia coli | Staphylococcus aureus [3]
8 µg/mL: Bacillus subtilis | Staphylococcus aureus [4]
